The target of this assay is potassium channels (Cavia porcellus, UniProt A0A286XYR9). In words: Membrane hyperpolarization (MHP) assay in primary cultured guinea-pig urinary bladder (GPB) cells, DiBAC(4)3 FLIPR. It is filed as cell-based. As to conditions: concentration that elicits 50% of the maximal response for the test sample. As to the method:
Determination of Potassium Channel Opening Activity Membrane Hyperpolarization Assays Compounds were evaluated for potassium channel opening activity using the rat thoracic aorta smooth muscle AI 0 cell line or primary cultured guinea-pig urinary bladder (GPB) cells. The AI0 cell line was purchased from the American Type Culture Collection (Rockville, MD; Cat # 30-2002). […] Louis, MO) and 0.2 mg/mL ronase (Calbiochem, La Jolla, CA) with continuous stirring in a cell incubator for 30 minutes. The mixture was then centrifuged at 1300 x g for 5 minutes, and the pellet resuspended in Dulbecco's PBS (GIBCO, Gaithersburg, MD) and recentrifuged to remove residual enzyme. […] Functional activity at potassium channels was measured by evaluating changes in membrane potential using the bis-oxonol dye DiBAC(4)3 (Molecular Probes) in a 96-well cell-based kinetic assay system, Fluorescent Imaging Plate Reader (FLIPR) (K.S. Schroeder et al., J. Biomed. Screen., v. I pp. 75-81 (1996)). […] With increasing membrane potential (for example, K+depolarization), the probe further partitions into the cell; this is measured as an increase in fluorescence due to dye interaction with intracellular lipids and proteins. Conyersely, decreasing membrane potential (hyperpolarization by potassium channel openers) evokes a decrease in fluorescence. […] Changes in fluorescence were monitored for an additional 25 minutes. […]

Protein sequences, listed by entry. Tags and fused reporters are not part of them. Residues count along the entry.
UniProt A0A286XYR9, 1-1546: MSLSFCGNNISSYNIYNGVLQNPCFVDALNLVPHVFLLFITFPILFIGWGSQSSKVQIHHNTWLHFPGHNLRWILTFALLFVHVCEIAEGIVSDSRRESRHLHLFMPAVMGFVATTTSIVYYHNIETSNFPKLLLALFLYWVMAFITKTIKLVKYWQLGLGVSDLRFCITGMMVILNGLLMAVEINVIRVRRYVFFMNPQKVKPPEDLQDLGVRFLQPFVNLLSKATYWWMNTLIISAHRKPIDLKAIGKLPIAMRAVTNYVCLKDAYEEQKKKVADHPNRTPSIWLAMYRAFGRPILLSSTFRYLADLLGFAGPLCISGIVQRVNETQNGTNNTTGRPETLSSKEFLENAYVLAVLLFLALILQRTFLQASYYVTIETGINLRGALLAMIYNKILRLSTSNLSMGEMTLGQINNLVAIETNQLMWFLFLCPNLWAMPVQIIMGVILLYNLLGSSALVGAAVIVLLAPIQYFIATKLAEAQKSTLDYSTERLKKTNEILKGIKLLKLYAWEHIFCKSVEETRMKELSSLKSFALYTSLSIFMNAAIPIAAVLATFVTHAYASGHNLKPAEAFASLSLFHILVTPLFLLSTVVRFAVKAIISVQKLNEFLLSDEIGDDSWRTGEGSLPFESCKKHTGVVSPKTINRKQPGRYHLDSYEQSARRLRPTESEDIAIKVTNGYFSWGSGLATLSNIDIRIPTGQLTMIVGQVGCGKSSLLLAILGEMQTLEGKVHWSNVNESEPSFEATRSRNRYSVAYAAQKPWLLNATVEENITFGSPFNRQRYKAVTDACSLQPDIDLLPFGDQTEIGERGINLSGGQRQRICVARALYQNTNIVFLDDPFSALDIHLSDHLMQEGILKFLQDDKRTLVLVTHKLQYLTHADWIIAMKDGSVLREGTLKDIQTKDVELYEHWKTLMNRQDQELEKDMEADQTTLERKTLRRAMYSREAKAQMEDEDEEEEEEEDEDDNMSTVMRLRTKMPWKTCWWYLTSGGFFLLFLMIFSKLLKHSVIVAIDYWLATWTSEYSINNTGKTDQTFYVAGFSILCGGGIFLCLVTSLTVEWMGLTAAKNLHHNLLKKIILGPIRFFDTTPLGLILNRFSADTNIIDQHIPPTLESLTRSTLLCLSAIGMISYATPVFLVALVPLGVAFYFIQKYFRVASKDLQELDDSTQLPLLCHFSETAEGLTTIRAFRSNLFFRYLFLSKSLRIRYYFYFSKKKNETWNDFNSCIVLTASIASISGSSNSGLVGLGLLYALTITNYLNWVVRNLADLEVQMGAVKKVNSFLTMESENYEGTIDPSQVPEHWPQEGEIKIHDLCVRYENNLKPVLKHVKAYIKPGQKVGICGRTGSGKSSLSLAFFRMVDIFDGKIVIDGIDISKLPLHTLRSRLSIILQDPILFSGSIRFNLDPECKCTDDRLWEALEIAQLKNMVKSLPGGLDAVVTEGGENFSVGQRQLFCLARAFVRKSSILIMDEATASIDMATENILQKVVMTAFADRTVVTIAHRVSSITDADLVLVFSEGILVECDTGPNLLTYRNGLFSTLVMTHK

For orientation: EC50 means the concentration needed to bring the measured effect to its halfway point. The low end stands for an effect from little substance, the high end for a need for much substance.

“8-(3-bromo-4-fluorophenyl)-6-trifluoromethyl-5,8-dihydrothiopyrano[3 .2-b]pyridine, 1,1-dioxide [Example 159]” came in with an EC50 of 0.32 µM.

The values are drawn from patent publication US6593335B1, “Potassium channel openers” (Abbott Laboratories, priority 1997, dated 2003).
